This is an account of results in publication PMC7949145 (The Journal of Biological Chemistry, 2021).

Chains of the proteins cited; added tags and fusions are not shown. Residues count along the entry.
UniProt G7CES0, 29-471 N45T/E46D: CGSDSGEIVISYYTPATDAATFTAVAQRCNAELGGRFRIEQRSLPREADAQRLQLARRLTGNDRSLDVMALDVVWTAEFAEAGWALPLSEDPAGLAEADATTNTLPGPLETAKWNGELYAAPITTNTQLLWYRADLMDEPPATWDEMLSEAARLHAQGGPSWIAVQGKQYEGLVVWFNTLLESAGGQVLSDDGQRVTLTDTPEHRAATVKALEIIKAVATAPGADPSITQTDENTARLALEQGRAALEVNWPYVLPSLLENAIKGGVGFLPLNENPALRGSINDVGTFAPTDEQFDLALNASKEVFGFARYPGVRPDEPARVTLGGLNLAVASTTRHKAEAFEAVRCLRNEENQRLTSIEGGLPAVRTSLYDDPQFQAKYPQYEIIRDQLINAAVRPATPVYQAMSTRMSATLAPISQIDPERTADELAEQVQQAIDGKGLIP

The assay concerns the target Mtr LpqY Asn25Thr-Glu26Asp (Mycolicibacterium thermoresistibile, UniProt G7CES0, E46D/N45T). Kind of assay: biochemical. The class given is binding, Mycobacterium thermoresistible.

Broadly, the Kd is the free concentration of one partner at which half of the binding sites on the other are occupied at equilibrium, for simple one-to-one binding. Read a low Kd as tighter binding. The compound `OC[C@H]1O[C@H](O[C@H]2O[C@H](CO)[C@@H](O)[C@H](O)[C@H]2O)[C@H](O)[C@@H](O)[C@@H]1O` [Trehalose, α-D-glucopyranosyl-α-D-glucopyranoside] showed a Kd of 23.4 ± 0.5 µM.
